Measured affinities in a library of Ab-14 heavy chain variants

All variants were tested on one target, the spike HR2 peptide PDVDLGDISGINAS (SARS-CoV-2).

Parent scFv Ab-14: VH joined to VL by a (GGGGS)3 linker. Changes lie in the heavy chain CDRs alone.
VH: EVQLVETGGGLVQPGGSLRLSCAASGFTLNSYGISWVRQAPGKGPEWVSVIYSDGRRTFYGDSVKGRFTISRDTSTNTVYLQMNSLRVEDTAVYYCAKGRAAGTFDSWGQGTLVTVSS
VL: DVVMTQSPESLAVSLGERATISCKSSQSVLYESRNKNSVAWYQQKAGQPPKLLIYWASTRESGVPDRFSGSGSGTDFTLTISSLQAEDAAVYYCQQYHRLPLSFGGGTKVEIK

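The parent was found by panning a naive human phage display library on the peptide. AAYL49 was designed without a model: most single CDR substitutions and a random sample of double and triple ones. In AlphaSeq, yeast of one mating type display the scFv and yeast of the other type display the target. Mating (16 h, 30 °C) was followed by selection of diploids and sequencing of their barcodes. Each replicate has its own calibration line, from reference interactions of the BCL2 family. There are three technical replicates.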

Each variant's VH is given in full.
This list gathers variants with a substitution at S63 (VH, numbered from residue 1).
The read-out is the apparent dissociation constant on a log10 scale (nM): the lower, the stronger.
Replicates are averaged; those with no signal do not enter the mean.
"no signal" means that the variant was in the library but no mating with the target was seen in any replicate; the authors take this as a sign of poor binding, and no number exists.
For reference, the parent read 0.65 as the reference entry and 4.11 (one replicate of three) as a member of this library.

Variant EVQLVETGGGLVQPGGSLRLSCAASGFTLNSYGISWVRQAPGKGPEWVSVIYSDGRRTFYGDVVKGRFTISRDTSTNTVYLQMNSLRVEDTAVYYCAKGRAAGTRDSWGQGTLVTVSS gave no signal (0 of 3 replicates). Variant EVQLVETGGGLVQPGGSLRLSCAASGFTLNCYGISWVRQAPGKGPEWVSVIPSDGRRTFYGDPVKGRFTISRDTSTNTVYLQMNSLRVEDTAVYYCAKGRAAGTFDSWGQGTLVTVSS gave 3.72 (1 of 3 replicates). Variant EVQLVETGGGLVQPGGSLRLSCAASGFTLNSYGIWWVRQAPGKGPEWVSVIYSDGRRTFYGDMVKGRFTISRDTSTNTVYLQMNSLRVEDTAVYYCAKGRFAGTFDSWGQGTLVTVSS gave 3.63 (1 of 3 replicates). Variant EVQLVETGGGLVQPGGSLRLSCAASGFTLNSYGISWVRQAPGKGPEWVSVIHSDGRRTFYGDRVKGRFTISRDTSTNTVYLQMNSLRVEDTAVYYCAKGRAAGTFDSWGQGTLVTVSS gave 2.86 (1 of 3 replicates). Variant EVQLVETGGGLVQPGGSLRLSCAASGFTLNSYGISWVRQAPGKGPEWVSVICSDGRRTFYGDQVKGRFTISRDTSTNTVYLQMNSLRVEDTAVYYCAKGRAAGTLDSWGQGTLVTVSS showed no signal (0 of 3 replicates). Variant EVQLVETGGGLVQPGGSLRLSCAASGFTLNSYGISWVRQAPGKGPEWVSVIYSDSRRTFYGDIVKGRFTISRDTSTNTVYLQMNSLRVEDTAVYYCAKSRAAGTFDSWGQGTLVTVSS showed 4.59 (1 of 3 replicates). With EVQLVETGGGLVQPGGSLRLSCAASGFTGNSYGISWVRQAPGKGPEWVSVIYSDFRRTFYGDEVKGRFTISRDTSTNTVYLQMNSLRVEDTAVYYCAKGRAAGTFDSWGQGTLVTVSS the result was no signal (0 of 3 replicates). Variant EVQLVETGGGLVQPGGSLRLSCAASGFTLDSYGISWVRQAPGKGPEWVSVIESDGRRTFYGDHVKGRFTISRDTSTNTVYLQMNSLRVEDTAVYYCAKGRAAGTFDSWGQGTLVTVSS showed no signal (0 of 3 replicates).

For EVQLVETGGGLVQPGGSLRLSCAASGFTLNSYGISWVRQAPGKGPEWVSVIYSDGRRTFDGDEVKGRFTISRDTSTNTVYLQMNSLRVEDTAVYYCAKGRAAGTFDSWGQGTLVTVSS, the assay gave 4.19 (1 of 3 replicates). Variant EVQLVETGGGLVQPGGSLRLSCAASGFTLNSYGYSWVRQAPGKGPEWVSVIYSDGRRTFYGDIVKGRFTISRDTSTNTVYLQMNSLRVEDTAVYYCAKGRKAGTFDSWGQGTLVTVSS showed 3.61 (1 of 3 replicates). Variant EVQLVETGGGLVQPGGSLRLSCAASGFTLNSYGISWVRQAPGKGPEWVSVIYSPGRRTFYGDLVKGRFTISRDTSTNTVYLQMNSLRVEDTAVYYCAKGRAAGTCDSWGQGTLVTVSS gave 4.63 (2 of 3 replicates). With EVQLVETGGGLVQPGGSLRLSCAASGFTLNSYGISWVRQAPGKGPEWVSVIYSDGRRSHYGDDVKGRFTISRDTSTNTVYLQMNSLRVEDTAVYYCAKGRAAGTFDSWGQGTLVTVSS the result was 1.93 (3 of 3 replicates). Variant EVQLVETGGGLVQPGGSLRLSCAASGFTLNSYGISWVRQAPGKGPEWVSVIYSDCRRGFYGDNVKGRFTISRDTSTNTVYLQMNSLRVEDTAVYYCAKGRAAGTFDSWGQGTLVTVSS showed 5.93 (2 of 3 replicates). Variant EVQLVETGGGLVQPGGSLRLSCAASGFTLNSYGISWVRQAPGKGPEWVSSIYSDGRRTFYGDGVKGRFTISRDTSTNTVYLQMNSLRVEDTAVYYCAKARAAGTFDSWGQGTLVTVSS showed no signal (0 of 3 replicates). For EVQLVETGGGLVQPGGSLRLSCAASGFTLNSYGISWVRQAPGKGPEWVSVIYSDGRGTFYGDYVKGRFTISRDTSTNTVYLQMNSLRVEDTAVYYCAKGRASGTFDSWGQGTLVTVSS, the assay gave 3.71 (2 of 3 replicates). For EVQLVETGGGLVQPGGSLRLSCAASGFTLNSYGISWVRQAPGKGPEWVSVIYSDMRRTFYGDFRKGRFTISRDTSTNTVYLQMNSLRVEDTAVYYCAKGRAAGTFDSWGQGTLVTVSS, the assay gave no signal (0 of 3 replicates).

With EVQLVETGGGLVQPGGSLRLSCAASGFTLNSYLISWVRQAPGKGPEWVSVIYSDARRTFYGDEVKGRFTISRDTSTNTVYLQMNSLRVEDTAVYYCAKGRAAGTFDSWGQGTLVTVSS the result was no signal (0 of 3 replicates). Variant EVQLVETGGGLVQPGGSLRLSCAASGFTLNSYGISWVRQAPGKGPEWVSVIYSDGRRTFSGDEKKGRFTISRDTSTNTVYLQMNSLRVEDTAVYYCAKGRAAGTFDSWGQGTLVTVSS gave 2.37 (1 of 3 replicates). For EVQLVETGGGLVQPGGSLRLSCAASFFTLNSYGISWVRQAPGKGPEWVSVIYSDGRRTFYGCHVKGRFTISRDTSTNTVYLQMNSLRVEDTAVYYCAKGRAAGTFDSWGQGTLVTVSS, the assay gave 3.68 (1 of 3 replicates). Variant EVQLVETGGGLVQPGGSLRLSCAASGFTSNSYGISWVRQAPGKGPEWVSVIYSDGRRTFYGDIVKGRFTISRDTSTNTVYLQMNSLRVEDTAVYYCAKGRHAGTFDSWGQGTLVTVSS showed 3.69 (2 of 3 replicates). Variant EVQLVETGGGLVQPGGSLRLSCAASGFTLYSYGISWVRQAPGKGPEWVSVIYSDGRRTFYGDCVKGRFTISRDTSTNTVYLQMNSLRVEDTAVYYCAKGRAAGTFKSWGQGTLVTVSS showed no signal (0 of 3 replicates). Variant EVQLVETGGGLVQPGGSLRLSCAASGFTLNSYGISWVRQAPGKGPEWVSVIYSDGRRTFYGDIVKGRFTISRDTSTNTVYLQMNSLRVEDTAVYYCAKGRAAGTFDSWGQGTLVTVSS gave 3.32 (3 of 3 replicates). Variant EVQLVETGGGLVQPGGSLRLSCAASGFTLNSYGISWVRQAPGKGPEWVSVIYSDGRRTKYGDQVKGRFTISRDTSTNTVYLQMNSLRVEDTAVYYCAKKRAAGTFDSWGQGTLVTVSS showed 1.28 (3 of 3 replicates). For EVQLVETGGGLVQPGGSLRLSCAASGFTLNSYGIIWVRQAPGKGPEWVSVIYSDGRRTFYGDRVKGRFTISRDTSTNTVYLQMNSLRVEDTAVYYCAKGRAAGTFDSWGQGTLVTVSS, the assay gave no signal (0 of 3 replicates).

Variant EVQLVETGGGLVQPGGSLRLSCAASGFTLNSYGISWVRQAPGKGPEWVSVKYSDGRRTFYGDWVKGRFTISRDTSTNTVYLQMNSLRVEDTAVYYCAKGRAAGTFRSWGQGTLVTVSS gave 4.06 (1 of 3 replicates). Variant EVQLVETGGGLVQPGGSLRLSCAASGFTLNSYGISWVRQAPGKGPEWVSVIYSDGRRTGYGDEVKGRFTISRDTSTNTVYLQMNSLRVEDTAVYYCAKGRAYGTFDSWGQGTLVTVSS gave 1.87 (3 of 3 replicates).

Three control strains display no target. For library AAYL49, 15% of the pairings with them gave a signal, with a median of 4.06 and one signal in twenty below 2.83, so weak values seen in few replicates may be background.

Source: Engelhart et al. 2022 (doi:10.1038/s41597-022-01779-4), MIT Lincoln Laboratory and A-Alpha Bio; data file from the FLAb repository.